Values quoted from earlier work, collected in patent US20260382549A1, “USE OF (S)-3-AMINO-4-(DIFLUOROMETHYLENYL)CYCLOPENT-1-ENE-1-CARBOXYLIC ACID INTHE TREATMENT OF DIABETES AND PRE-DIABETES” (published 2026).

Tests used:
[1] = tested on: alanine aminotransferase (Ala-AT); details: role: inhibitor
[2] = tested on: aspartate aminotransferase (Asp-AT); details: role: inhibitor
[3] = tested on: murine T cell; details: Tian et al., Sci Rep 11, 5402 (2021)
[4] = tested on: LPS-stimulated murine macrophages; details: GABA or a GABAA-R agonist
[5] = preclinical, compared with vigabatrin
[6] = use in treatment resistant epilepsy and infantile spasms
[7] = significantly lower drug dosages

## N[C@H]1C=C(C(=O)O)CC1=C(F)F
[1]; very weak reversible inhibitor
  IC50: > 4 mM
[2]; very weak reversible inhibitor
  IC50: > 4 mM

## NCCCC(=O)O
[3]
  TGFß and Treg responses: promoting
  murine T cell production of IL-21, IFNγ2-4, TNFα3, and IL-123: limit
[4]
  secretion of IL-6, IL-1B, IL-12 and/or TNFα: reduced

## N[C@H]1C[C@@H](C(=O)O)CC1=C(F)F
[5]
  pharmacokinetics at significantly lower drug dosages: comparable pharmacokinetics
[5]; [7]
  tolerability: improved tolerability
  toxicity profile: more favorable toxicity profile
[1]; unlike vigabatrin
  inactivation or inhibition of off-target enzyme Ala-AT: not to inactivate or inhibit
[2]; unlike vigabatrin
  inactivation or inhibition of off-target enzyme Asp-AT: not to inactivate or inhibit

## C=CC(N)CCC(=O)O (centres unmarked)
[6]
  serious side effects: potential retinal toxicity and subsequent visual field defects
